Earlier results in PMC2603313, “Direct Inhibition of GSK3β by the Phosphorylated Cytoplasmic Domain of LRP6 in Wnt/β-Catenin Signaling” (PLoS ONE, 2008).

Biological target: caspase-3
Conditions: read-out: Ki toward caspase-3; cited from earlier work
Experimental: Given this Ki value, the inhibitory effect of phosphorylated LRP6 on GSK3β is relatively low compared to other cytoplasmic protein inhibitors, such as XIAP (Ki toward caspase-3 ∼2 nM [26]), although it is a much stronger inhibitor than the phosphorylated N-terminal segment of GSK3β in trans. However, the weak inhibitory effect of the phosphorylated LRP6 on GSK3β could become important when GSK3β and ...

Substance: XIAP: cytoplasmic protein inhibitor (toward caspase-3)
- Ki: ~2 nM
